Literature values, collected in patent US9987257B2, “Pediatric oral suspension formulations of amoxicillin and clavulanate potassium and method for using same” (priority 2012, dated 2018).

Assays:
[1] = system: children; details: in vivo
[2] = system: pediatric patients; details: human, in vivo

Amoxicillin-Clavulanate
Mastoiditis [1]: 0 number of children (percent)
Treatment discontinued because of rash [1]: **In each group, treatment was discontinued in one child because or rash.
Treatment discontinued because of vomiting [1]: ∥In the amoxicillin-clavulanate group, treatment was discontinued in one child because of vomiting.
pediatric patients experiencing some diarrhea and/or vomiting [2]: ~20%
